These are literature values, as cited in patent publication US20180271470A1, “METHODS FOR QUANTIFYING PANCREATIC BETA CELL FUNCTION AND MASS PROPERTIES WITH RADIOMANGANESE POSITRON EMISSION TOMOGRAPHY” (Wisconsin Alumni Research Foundation, priority 2017, published 2018).

Chains of the proteins cited; added tags and fusions are not shown.
UniProt Q05940, whole entry, species assumed: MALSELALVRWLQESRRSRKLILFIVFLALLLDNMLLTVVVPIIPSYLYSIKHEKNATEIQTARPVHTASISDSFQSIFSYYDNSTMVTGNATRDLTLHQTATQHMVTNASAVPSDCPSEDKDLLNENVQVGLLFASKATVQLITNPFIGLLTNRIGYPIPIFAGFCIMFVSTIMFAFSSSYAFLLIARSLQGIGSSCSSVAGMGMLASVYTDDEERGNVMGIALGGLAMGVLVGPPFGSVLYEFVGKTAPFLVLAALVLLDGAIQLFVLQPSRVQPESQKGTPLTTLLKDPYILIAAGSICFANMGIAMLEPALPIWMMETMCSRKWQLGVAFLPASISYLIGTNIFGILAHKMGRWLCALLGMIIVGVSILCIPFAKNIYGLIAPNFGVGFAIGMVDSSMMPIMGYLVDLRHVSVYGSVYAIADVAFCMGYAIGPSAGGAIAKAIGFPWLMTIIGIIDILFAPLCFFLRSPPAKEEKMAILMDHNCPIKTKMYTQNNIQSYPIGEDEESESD

This series has as its target type 2 vesicular transporter (VMAT2) (Homo sapiens, UniProt Q05940). The settings on record: cited from earlier work.

On to `COc1cc2c(cc1O[11CH3])CCN1CC(CC(C)C)C(O)CC21` (stereo not shown) [[^11C]-DTBZ, [^11C]-Dihydrotetrabenazine], for which the “affinity for VMAT2” value is “high affinity”.
